Data on one molecule can be found in US12377100B2 (GILEAD SCIENCES, INC., priority 2015, dated 2025).

Type in all cases: cell-based
The test system of one experiment is TNFα. The experiment can be described thus: PBMC cytokine profiling assay, TNFα induction. Conditions: Homo sapiens, 24 h, read-out: TNFα AC50. The method, then:
(§1) Certain compounds disclosed herein we tested according to the procedure described below. Additionally, certain reference compounds were prepared and tested along with the compounds of the present disclosure.
(§2) Compounds were dissolved and stored in DMSO (Sigma-Aldrich, St. Louis, MO) at 10 mM concentration.
(§3) Cryopreserved human PBMCs isolated from healthy donors were purchased from StemCell Technologies (Vancouver, Canada). Cell culture medium used was RPMI with L-Glutamine (Mediatech, Manassas, VA) supplemented with 10% fetal bovine serum (Hyclone, GE Healthcare, Logan, UT) and Penicillin-Streptomycin (Mediatech). […]
(§4) Cryopreserved human PBMCs (1×10e8 cells/ml) were thawed at 37° C. and resuspended in 25 mL warm cell culture medium. […] Cells were counted using a Cellometer (Nexcelcom Bioscience), adjusted to 2×10e6 cells, and incubated for 2 hours in an incubator set at 37° C., 5% CO2 to recover from cryopreservation. […]
(§5) Using a Biomek FX 384 well pipetting station (Beckman), conditioned culture medium (CCM) from the assay plate was transferred to MSD capture plates customized for each cytokine. […] MSD Read Buffer diluted to 2× in deionized water and 35 μL/well was added via Biomek FX instrument. The plates were read immediately in a MSD6000 reader. […]

A further experiment relates to IL12p40. In words: PBMC cytokine profiling assay, IL12-p40 induction. To be noted: Homo sapiens, 24 h, read-out: IL12p40 AC50. The method, then:
as §1, §2, §3, §4, §5

A further experiment relates to IFNα. In words: PBMC cytokine profiling assay, IFNα induction. Conditions: Homo sapiens, 24 h, read-out: IFNα AC50. The procedure:
as §1, §2, §3, §4, §5

Consider `CCCC[C@](C)(CO)Nc1nc(N)nc2cc(Cl)cnc12` [Example 114, (R)-2-((2-amino-7-chloropyrido[3,2-d]pyrimidin-4-yl)amino)-2-methylhexan-1-ol], for which the AC50 – broadly, the concentration giving half of the maximal activity seen – amounted to 340 nM with TNFα, 200 nM in the experiment on IL12p40 and 34.1 µM with IFNα.
